19 molecules from patent US6686366B1, “Compounds specific to adenosine A3 receptor and uses thereof” (OSI Pharmaceuticals, Inc., priority 1998, dated 2004) can be followed below.

Sequences of proteins named here, by UniProt entry; tags and fusion partners are left off.
UniProt P30542, whole entry: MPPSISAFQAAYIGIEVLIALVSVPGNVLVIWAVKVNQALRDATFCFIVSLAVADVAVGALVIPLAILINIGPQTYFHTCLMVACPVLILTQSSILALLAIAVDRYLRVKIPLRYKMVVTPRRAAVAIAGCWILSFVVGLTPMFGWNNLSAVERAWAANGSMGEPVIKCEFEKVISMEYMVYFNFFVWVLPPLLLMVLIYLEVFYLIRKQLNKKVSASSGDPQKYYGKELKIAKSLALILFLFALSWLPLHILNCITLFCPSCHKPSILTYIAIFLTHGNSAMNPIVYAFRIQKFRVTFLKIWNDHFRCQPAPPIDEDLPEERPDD
UniProt P0DMS8, whole entry: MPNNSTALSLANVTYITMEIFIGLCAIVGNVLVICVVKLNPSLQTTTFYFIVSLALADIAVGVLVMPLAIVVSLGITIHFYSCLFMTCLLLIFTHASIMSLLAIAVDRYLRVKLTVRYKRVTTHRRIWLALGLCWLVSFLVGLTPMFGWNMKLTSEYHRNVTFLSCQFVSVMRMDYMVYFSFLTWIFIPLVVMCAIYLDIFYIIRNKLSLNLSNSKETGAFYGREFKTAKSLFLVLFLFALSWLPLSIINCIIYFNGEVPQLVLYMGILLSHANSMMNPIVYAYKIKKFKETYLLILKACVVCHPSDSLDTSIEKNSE

Experiment [1] addresses human A1 receptor subtype (Homo sapiens, UniProt P30542). Briefly: biochemical.
Experiment [2] concerns the target T1, human A2b receptor subtype (Homo sapiens, UniProt P29275).
T1 construct: expressed in transfected cells; host or cells: HEK293, membranes
T1 sequence (P29275 1-332): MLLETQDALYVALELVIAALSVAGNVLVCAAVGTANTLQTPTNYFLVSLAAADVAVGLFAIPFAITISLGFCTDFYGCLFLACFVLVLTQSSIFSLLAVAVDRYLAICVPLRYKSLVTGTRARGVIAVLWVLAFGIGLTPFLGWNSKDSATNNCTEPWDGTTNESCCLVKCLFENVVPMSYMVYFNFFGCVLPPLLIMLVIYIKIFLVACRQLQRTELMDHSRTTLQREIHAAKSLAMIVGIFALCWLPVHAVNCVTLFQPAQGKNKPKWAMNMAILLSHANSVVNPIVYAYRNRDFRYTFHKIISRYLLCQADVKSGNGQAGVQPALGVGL
Briefly: Adenosine 2b receptor subtype competition radioligand binding, [3H]DPCPX, HEK293 membranes. The settings on record: Table 13.

The target in experiment [3] is human A3 receptor subtype (Homo sapiens, UniProt P0DMS8). Briefly: Adenosine 3 receptor competition radioligand binding, [125I]AB-MECA, HEK293 membranes.
Experiment [4] has as its target human adenosine A1 receptor (Homo sapiens, UniProt P30542). Briefly: Yeast β-Galactosidase reporter gene assay, inhibition of NECA-induced activity, strain CY12660. For orientation: A reporter such as luciferase makes a cellular process visible.
The target of experiment [5] is T2, human A2a receptor subtype (Homo sapiens, UniProt P29274).
T2 construct: expressed in transfected cells; host or cells: HEK-293 (Cadus clone #5), membranes
Briefly: Adenosine 2a receptor subtype competition radioligand binding, [3H]CGS-21680, HEK293 membranes. The settings on record: Table 13.

Setting [6] is: A1 Binding Ki (nM), Table 11, Effect of N6-Substituent.
Where [7] appears, read: A1 Yeast IC50 (nM), Table 12, Retro-Amide Analogues.
[8] abbreviates: A1 Binding Ki (nM), Table 12, Retro-Amide Analogues.
Setting [9] is: A1 Yeast IC50 (nM), Table 11, Effect of N6-Substituent.

Like-named read-outs stand apart in the source and are kept apart here.

Regarding `CC(=O)NC[C@H](C)Nc1nc(-c2ccccc2)nc2[nH]c(C)c(C)c12` [Compound 1109], the Ki (commonly a dissociation constant, usually derived from enzyme kinetics or from competition with a known ligand) in experiment [1] (setting [6]) was determined as 9 nM.
Regarding `CC(=O)NCCNc1nc(-c2ccccc2)nc2[nH]c(C)c(C)c12` [Compound 1300], the inhibitory constant (Ki) in experiment [2] was 80.3 nM; in experiment [3], 513 nM.
`Cc1[nH]c2nc(-c3ccccc3)nc(NCC(C)NC(=O)OC(C)C)c2c1C` (stereo not drawn) [Compound 1105]: it took 472 nM to reach half-maximal inhibition in experiment [4] (IC50). This molecule had an inhibition constant Ki in experiment [1] of 105 nM.
For `Cc1[nH]c2nc(-c3ccccc3)nc(NCC(N)=O)c2c1C` [Compound 1206], in experiment [4] (setting [7]), it took 4030 nM to reach half-maximal inhibition (IC50). This molecule gave a Ki in experiment [1] (setting [8]) of 50.8 nM.
`CCNC(=O)NCCNc1nc(-c2ccccc2)nc2[nH]c(C)c(C)c12` [Compound 1103]: in experiment [4] (setting [9]), half-maximal inhibition (IC50) required 3220 nM. Moreover, the Ki in experiment [1] (setting [6]) was 71.1 nM.
As to `CNC(=O)NCCCCNc1nc(-c2ccccc2)nc2[nH]c(C)c(C)c12` [Compound 1312], the Ki in experiment [5] came out at 2960 nM; in experiment [2] it was 375 nM; in experiment [1] (Binding Ki (nM) A1, Table 13), 443 nM.
`CNC(=O)CCNc1nc(-c2ccccc2)nc2[nH]c(C)c(C)c12` [Compound 1201]: the IC50 (commonly the concentration needed to halve the response being measured) in experiment [4] (setting [7]) was found to be 45.7 nM. This molecule also registered a Ki in experiment [1] (setting [8]) of 7.4 nM.
Take `CNC(=O)CCNc1nc(-c2ccccc2)nc2[nH]c(C)c(C)c12` [Compound 1303]: the Ki in experiment [5] stood at 111 nM; in experiment [2] it was 121 nM; in experiment [3], 44.6 nM; in experiment [1] (Binding Ki (nM) A1, Table 13), 17.4 nM.
In the case of `Cc1[nH]c2nc(-c3ccccc3)nc(NCCC(=O)O)c2c1C` [Compound 1204], affinity in experiment [1] (setting [8]) was put at a Ki of 1060 nM.
Turning to `CCNC(=O)NCCNc1nc(-c2ccccc2)nc2[nH]c(C)c(C)c12` [Compound 1314], the Ki in experiment [5] amounted to 204 nM; in experiment [2], 30 nM; in experiment [3], 0.02 nM; in experiment [1] (Binding Ki (nM) A1, Table 13), 87 nM.
Regarding `CNC(=O)NCCNc1nc(-c2ccccc2)nc2[nH]c(C)c(C)c12` [Compound 1102], the midpoint of inhibition in experiment [4] (setting [9]), the IC50, lay at 101 nM. Further, in experiment [1] (setting [6]), the Ki is 10.3 nM.
`CNC(=O)NCCNc1nc(-c2ccccc2)nc2[nH]c(C)c(C)c12` [Compound 1302]: the Ki in experiment [5] amounted to 75.6 nM; in experiment [2], 20.1 nM; in experiment [3], 4.3 nM; in experiment [1] (Binding Ki (nM) A1, Table 13), 20.2 nM.
As for `CC(=O)NCCCCNc1nc(-c2ccccc2)nc2[nH]c(C)c(C)c12` [Compound 1311], in experiment [5], the Ki worked out at 981 nM.
The molecule `CC(=O)NCC(C)Nc1nc(-c2ccccc2)nc2[nH]c(C)c(C)c12` (stereo not drawn) [Compound 1106] gave an IC50 in experiment [4] (setting [9]) of 162 nM.
Same read-out and setting: the same measure for `CC(=O)NCCNc1nc(-c2ccccc2)nc2[nH]c(C)c(C)c12` [Compound 1100]: 115 nM.
In the case of `CC(=O)NC1CCCN(c2nc(-c3ccccc3)nc3[nH]c(C)c(C)c23)C1` (stereo not drawn) [Compound 1309], the Ki in experiment [5] turned out to be 109 nM; in experiment [2] it was 109 nM; in experiment [3], 0.3 nM; in experiment [1] (Binding Ki (nM) A1, Table 13), 40 nM.
Molecule `CC(=O)NCCNc1nc(-c2ccccc2)nc2[nH]c(C)c(C)c12` [Compound 1002] displayed an IC50 in experiment [4] (A1 Yeast IC50 (nM), Table 10, Effect of N6-Substituent) of 82.8 nM.
Turning to `CC(=O)NCC(C)Nc1nc(-c2ccccc2)nc2[nH]c(C)c(C)c12` (stereo not drawn) [Compound 1301], the Ki was determined as 50.7 nM in experiment [5], 84.6 nM in experiment [2] and 430 nM in experiment [3].
For the molecule `CNC(=O)NCCCNc1nc(-c2ccccc2)nc2[nH]c(C)c(C)c12` [Compound 1310], the Ki is 275 nM in experiment [2] and 255 nM in experiment [1] (Binding Ki (nM) A1, Table 13).
